These are literature values, as cited in US11000710B2, “Composition and method for the generation of chlorine dioxide from the oxidative consumption of biomolecules” (priority 2009, dated 2021).

The term pKa denotes the negative logarithm of the acid dissociation constant.

The conditions of this data set: Lynch et al. 1997; cited from earlier work.

Regarding chlorite [ClO2^−/HClO2], the pKa is 2.31.
